The chains behind the UniProt entries cited, without tags or fusion partners. A line that says so, or that is headed by a name, gives the form on record, which may keep a tag or linker. Residues count along the entry.
UniProt P36544, 23-229 with tags or gaps M226I/T225I: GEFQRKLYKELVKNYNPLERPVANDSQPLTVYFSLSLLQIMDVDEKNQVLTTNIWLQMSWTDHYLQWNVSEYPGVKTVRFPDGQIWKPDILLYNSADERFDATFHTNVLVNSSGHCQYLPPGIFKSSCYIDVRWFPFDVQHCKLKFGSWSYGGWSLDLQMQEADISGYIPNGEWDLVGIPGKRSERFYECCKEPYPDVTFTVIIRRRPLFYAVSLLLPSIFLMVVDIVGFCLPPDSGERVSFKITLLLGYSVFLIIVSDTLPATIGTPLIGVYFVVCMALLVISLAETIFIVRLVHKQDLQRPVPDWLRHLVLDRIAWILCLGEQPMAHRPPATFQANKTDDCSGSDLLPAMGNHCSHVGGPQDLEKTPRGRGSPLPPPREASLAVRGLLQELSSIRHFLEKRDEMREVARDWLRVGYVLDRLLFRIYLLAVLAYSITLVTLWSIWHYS
UniProt P36544, 23-229 with tags or gaps M226I/Q79G/T225I: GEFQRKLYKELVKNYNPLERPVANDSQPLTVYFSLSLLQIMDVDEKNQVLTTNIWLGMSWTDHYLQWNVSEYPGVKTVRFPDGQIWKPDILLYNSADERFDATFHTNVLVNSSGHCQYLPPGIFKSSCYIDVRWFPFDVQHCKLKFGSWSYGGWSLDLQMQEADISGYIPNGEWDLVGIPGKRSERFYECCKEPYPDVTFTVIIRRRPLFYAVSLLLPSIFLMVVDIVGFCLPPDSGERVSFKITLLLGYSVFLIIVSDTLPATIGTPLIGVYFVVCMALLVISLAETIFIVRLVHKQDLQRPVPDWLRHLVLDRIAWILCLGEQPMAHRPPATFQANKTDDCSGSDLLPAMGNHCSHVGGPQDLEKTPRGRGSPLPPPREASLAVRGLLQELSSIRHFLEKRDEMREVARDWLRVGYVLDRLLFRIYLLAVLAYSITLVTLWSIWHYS
UniProt P36544, 23-229 with tags or gaps L141F/M226I/T225I: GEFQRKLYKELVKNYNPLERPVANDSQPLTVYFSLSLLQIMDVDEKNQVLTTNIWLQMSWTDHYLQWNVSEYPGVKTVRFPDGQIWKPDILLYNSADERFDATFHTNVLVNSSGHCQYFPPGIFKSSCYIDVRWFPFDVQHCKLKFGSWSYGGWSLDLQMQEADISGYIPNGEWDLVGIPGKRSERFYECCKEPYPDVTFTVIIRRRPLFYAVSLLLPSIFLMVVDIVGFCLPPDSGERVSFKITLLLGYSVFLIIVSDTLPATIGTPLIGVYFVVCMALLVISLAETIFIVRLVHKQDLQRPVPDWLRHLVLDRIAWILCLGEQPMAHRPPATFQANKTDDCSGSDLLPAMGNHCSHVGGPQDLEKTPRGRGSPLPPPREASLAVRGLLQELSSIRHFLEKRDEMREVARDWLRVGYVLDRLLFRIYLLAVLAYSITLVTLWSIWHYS

According to patent US8435762B2, “Chimeric ligand-gated ion channels and methods of use thereof” (Howard Hughes Medical Institute, priority 2008, dated 2013):

What was measured:
Test in all cases: fluorescence membrane potential (MP) assay, HEK 293 cells
Type in all cases: cell-based, human/mouse
Conditions in all cases: read-out: EC50-MP, IPD 5HT3, value (s.e.m.)
[1] = target: α7-5HT3 L141F (Homo sapiens, UniProt P36544, L141F/M226I/T225I)
[2] = target: α7-5HT3 Q79G (Homo sapiens, UniProt P36544, M226I/Q79G/T225I)
[3] = target: α7-5HT3 wt chimeric receptor (Homo sapiens, UniProt P36544, M226I/T225I)

Structure (SMILES): CSc1nccc(N2CC3CC2CN3)n1 (stereo not drawn)
- EC50 [1]: 0.1 µM
- EC50 [2]: > 100 µM
- EC50 [3]: > 100 µM

Structure (SMILES): c1ccc2nc3c(cc2c1)N1CCC3CC1
- EC50 [1]: 10 µM
- EC50 [2]: > 100 µM
- EC50 [3]: > 100 µM
